Measurements from patent publication US8058243B2, “Method for treating a brain cancer with ifenprodil” (HSC Research and Development Limited Partnership, priority 2006, dated 2011).

Tested on: murine neural precursor cells (neurosphere cultures)
Test: HTS of LOPAC library against secondary neurosphere cultures, MTT proliferation assay at 3 μM, day 7 (z score, P value)
Assay type: cell-based, mouse
Details: for Z score: 3 μM

## CN(CCCl)Cc1cc(Cl)c(NC2=NCCN2)c(Cl)c1
LOPAC library screen, MTT, neurosphere cultures
  Z score: 0.8606
LOPAC screen, neurosphere MTT proliferation, day 7
  Z score: 0.861
yes/no: significantly inhibited neurosphere proliferation (P<0.01) in primary screen
  Activity: no
